According to US20230257449A1:

Target: polyclonal human IgG
Assay: BLI polyreactivity: polyclonal human IgG on anti-human CH1 biosensors

For Control Antibody, the Max Signal (nm) was 0.046 nm.
